Like-named read-outs stand apart in the source and are kept apart here.
Key:
[1] = biological target: T1, human IL-1beta (human, UniProt P01584 117-269); experiment: cell-based or functional assay
[2] = biological target: T1, human IL-1beta; experiment: cell-based or functional assay; remark: listed apart in the source
[3] = biological target: T1, human IL-1beta; experiment: cell-based or functional assay; remark: listed apart in the source
[4] = biological target: murine IL-1beta (murine, UniProt P10749 118-269); experiment: SPR (BIAcore); antibody captured by anti-Fc, IL-1beta injected
[5] = biological target: T1, human IL-1beta; experiment: cell-based or functional assay; remark: listed apart in the source
[6] = biological target: T1, human IL-1beta; experiment: cell-based or functional assay; remark: listed apart in the source
[7] = biological target: cynomolgus IL-1beta (cynomolgus, UniProt P79182 117-268); experiment: SPR (BIAcore); antibody captured by anti-Fc, IL-1beta injected
[8] = biological target: rat IL-1beta (rat, UniProt Q63264 117-268); experiment: as above

Amino acid sequences for entries named in this document (tags omitted). Residues count along the entry.
UniProt P10749, 118-269 limits assumed: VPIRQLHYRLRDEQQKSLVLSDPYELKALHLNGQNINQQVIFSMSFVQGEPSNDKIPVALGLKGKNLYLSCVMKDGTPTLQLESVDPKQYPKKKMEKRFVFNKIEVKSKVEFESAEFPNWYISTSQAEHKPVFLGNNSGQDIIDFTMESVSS
UniProt P79182, 117-268 limits assumed: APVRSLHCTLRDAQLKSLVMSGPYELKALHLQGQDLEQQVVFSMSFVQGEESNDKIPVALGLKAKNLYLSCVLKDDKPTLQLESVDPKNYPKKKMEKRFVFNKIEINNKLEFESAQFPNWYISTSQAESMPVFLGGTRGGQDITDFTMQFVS
UniProt Q63264, 117-268 limits assumed: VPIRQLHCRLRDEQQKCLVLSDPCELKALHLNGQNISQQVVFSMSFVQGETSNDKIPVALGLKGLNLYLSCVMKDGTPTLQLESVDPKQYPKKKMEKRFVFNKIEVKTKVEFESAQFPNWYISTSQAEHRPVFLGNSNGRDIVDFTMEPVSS

IC50, inhibition of proliferation of D10 cells [1]: 3.36 nM
IC50, inhibition of ICAM-1 expression upon IL-1beta stimulation of A549 cells [2]: 0.94 nM
EC50, reduction of IL-6 expression upon IL-1beta stimulation of A549 cells [3]: 0.11 nM
Kd [4]: 0.22 nM
EC50, reduction of IL-6 expression upon IL-1beta stimulation of A549 cells [5]: 0.062 µg/mL
IC50, inhibition of ICAM-1 expression upon IL-1beta stimulation of A549 cells [6]: 0.204 µg/mL
Kd [7]: 0.02 nM
Kd [8]: 0.007 nM
B1: Gevokizumab (antibody, V domains shown)
VH: QVQLQESGPGLVKPSQTLSLTCSFSGFSLSTSGMGVGWIRQPSGKGLEWLAHIWWDGDESYNPSLKSRLTISKDTSKNQVSLKITSVTAADTAVYFCARNRYDPPWFVDWGQGTLVTVSS
VL: DIQMTQSTSSLSASVGDRVTITCRASQDISNYLSWYQQKPGKAVKLLIYYTSKLHSGVPSRFSGSGSGTDYTLTISSLQQEDFATYFCLQGKMLPWTFGQGTKLEIK
